The pIC50 is the IC50 on a negative log10 scale, so that one unit is a factor of ten.

This data set concerns PC-3 cell line. Description: MTT cytotoxicity assay in PC-3. The following applies: read-out: IC50 (cytotoxic activity in PC-3 cell line); as repeated in Table 5; NE = no effect. How it is done:
The results are tabulated as IC50 values. All experiments were independently performed at least three times and the values were calculated after 72 hours exposure (drug concentrations of 2, 5, 7 and 10 μM).
PC-3 cells were seeded in 96-well plates (Millipore, Eschborn, Germany) at a density of 5 × 10^3 cells per well. The samples were incubated at 37 °C under 5% CO2 overnight prior to the addition of the compounds. Compounds were diluted in complete medium. After 3 days of incubation, 10 μL MTT solution (5 mg/mL in PBS) was added to the cells in each well and these were stored for an additional 4 h at 37 °C. […] The percentage of viable cells was calculated to obtain IC50-values.
PC-3 are human tumorigenic and metastatic prostate cancer cells and these were obtained from American Type Culture Collection (ATCC, Manassas, VA, USA) (passage 36).
On the technique in general: Formazan colour is commonly taken as a measure of viable cells.

pIC50: −log10 of the molar value.

On to “(3-phenyl-propanonylselenyl)acetic acid [Compound 12]”, for which the pIC50 was less than 5.00.
